Values quoted from earlier work in patent publication USRE50618E1, “Anionic-core composition for delivery of therapeutic agents, and methods of making and using the same” (PharmaIN Corporation, priority 2009, dated 2025).

Conditions: stated in the description; cited from earlier work

## Interferon beta: type I interferon used for treatment of Multiple sclerosis
  isoelectric point (pI): 8.9-9.7
